# According to PubChem BioAssay (NCI):
# This is a selection; strong and weak results do not stand in their true shares. The source holds several records for some structures; these can differ, active in one and inactive in another. The source made the active and inactive calls. Rule as the data show it: active = growth inhibition above about 70%; inactive = the rest.
# Columns and labels:
# [1] = NCI Yeast Anticancer Drug Screen. Data for the rad50 strain (AID 155);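 also: 0% = growth of vehicle-only cultures of the same strain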; settings: S. cerevisiae rad50 strain growth inhibition; at 50.0 µM; stronger effect = higher value
# [2] = NCI Yeast Anticancer Drug Screen. Data for the mec2-1 strain (AID 157); settings: S. cerevisiae mec2-1 strain, at 50.0 µM, stronger effect = higher value
# [3] = NCI Yeast Anticancer Drug Screen. Data for the sgs1 mgt1 strain (AID 161);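 also: 0% = growth of cultures given vehicle only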; settings: S. cerevisiae sgs1 mgt1 strain, at 50.0 µM, stronger effect = higher value
# [4] = NCI Yeast Anticancer Drug Screen. Data for the cln2 rad14 strain (AID 165);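 also: 0% = growth equal to vehicle treated cultures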; settings: S. cerevisiae cln2 rad14 strain, at 50.0 µM, stronger effect = higher value
# [5] = NCI Yeast Anticancer Drug Screen. Data for the bub3 strain (AID 167); settings: S. cerevisiae bub3 mutant strain, at 50.0 µM, stronger effect = higher value
# [6] = NCI Yeast Anticancer Drug Screen. Data for the mlh1 rad18 strain (AID 175); settings: S. cerevisiae mlh1 rad18 strain growth inhibition; at 50.0 µM; stronger effect = higher value
Compound,growth inhibition [1],growth inhibition [2],growth inhibition [3],growth inhibition [4],growth inhibition [5],growth inhibition [6]
CC1(CCC2(C)N=C(NN=C(CCl)CCl)SP2(=O)Nc2ncccn2)N=C(NN=C(CCl)CCl)SP1(=O)Nc1ncccn1 (stereo not drawn),inactive: -20.7%,inactive: -31.6%,inactive: -2.2%,inactive: -38.2%,inactive: -41.6%,inactive: -35.6%
CCOC(=O)NC(c1ccccc1[N+](=O)[O-])P(=O)(O)Nc1ncn[nH]1 (stereo not drawn),inactive: -19%,inactive: -21.5%,inactive: -28.5%,inactive: 8.9%,inactive: -32.3%,inactive: -21.6%
ICCN(CCI)c1ccc2ccccc2c1,inactive: 30.6%,inactive: 11%,inactive: 18.1%,inactive: 18.1%,inactive: 21.4%,inactive: 37.1%
CCC(=O)ON[N+](=O)[O-],inactive: -11.1%,inactive: -0.85%,inactive: -11.8%,inactive: 7.65%,inactive: 11.8%,inactive: 4.9%
Cc1cc(C)nc(NP(=O)(Oc2ccccc2)Oc2ccccc2)n1,inactive: -6.85%,inactive: -8.85%,inactive: 12.9%,inactive: -23.2%,inactive: 6.45%,inactive: -13.7%
O=C(O)C[n+]1ccc(/C=C/c2ccccc2)cc1,inactive: -13.8%,inactive: 8.1%,inactive: 2.85%,inactive: -29.2%,inactive: -17.1%,inactive: 0.5%
Cc1c([N+](=O)[O-])c2cc([N+](=O)[O-])c([N+](=O)[O-])cc2n1C,inactive: 4.9%,inactive: 4.4%,inactive: 2.5%,inactive: -11.8%,inactive: -5.25%,inactive: 29.4%
CC[P+]1(c2ccccc2)CCC(C)(C)c2ccccc21 (stereo not drawn),inactive: 14.1%,inactive: 30.1%,inactive: 2.3%,inactive: -16.1%,inactive: 3.65%,inactive: -1.6%
[N-]=[N+]=Nc1ccc([As](=O)(O)O)cc1,inactive: -8.1%,inactive: -15.2%,inactive: -27.3%,inactive: -9.8%,inactive: -43.8%,inactive: -9.1%
O=P(O)(O)F,inactive: -7.8%,inactive: -21.4%,inactive: -13.9%,inactive: -25.4%,inactive: -0.3%,inactive: -23.9%
O=P1(N(CCCl)CCCl)NCCC(C(F)(F)F)O1 (stereo not drawn),inactive: 16.7%,inactive: 7.95%,inactive: 15.8%,inactive: 1%,inactive: 7.85%,inactive: 18.2%
S=P(Cl)(Oc1ccccc1)c1ccccc1 (stereo not drawn),inactive: 16.9%,inactive: 23.4%,inactive: 6.85%,inactive: 50%,inactive: 27.3%,inactive: 18.6%
CC12CCCC1(OO)OOC2=O (stereo not drawn),inactive: -10.9%,inactive: -1.85%,inactive: -13.8%,inactive: -40.5%,inactive: 3.25%,inactive: -17.3%
O=[As]c1ccc(S(=O)(=O)NCCO)cc1 (stereo not drawn),inactive: 5.4%,inactive: -22.4%,inactive: -25.3%,inactive: -5.2%,inactive: -11.2%,inactive: -17.4%
CCC(O)(C(=O)OCC1=CC[N+]2([O-])CC[C@@H](OC(=O)Nc3ccccc3)C12)c1ccc(Cl)cc1 (stereo partly drawn),inactive: 64.5%,active: 83.5%,active: 75.5%,active: 77.2%,inactive: 40.3%,active: 77.8%
CC(=O)N(CCCl)CCCl,inactive: 0.1%,inactive: 10.3%,inactive: 11.2%,inactive: -38.4%,inactive: -46.7%,inactive: 7.4%
NS(=O)(=O)Cc1ccc([As](=O)(O)O)cc1,inactive: -2.55%,inactive: -26.9%,inactive: -38.4%,inactive: -15%,inactive: -51.2%,inactive: -1.65%
CC1(CCl)COP(=O)(n2cnc3ccccc32)OC1 (stereo not drawn),inactive: 10.6%,inactive: 24.5%,inactive: 19.1%,inactive: -5.55%,inactive: 14%,inactive: 20.8%
N#CC(O)CCOP(N)(=O)N(CCCl)CCCl (stereo not drawn),inactive: 61.5%,inactive: 60.6%,active: 75.3%,inactive: 68.7%,inactive: 36.1%,inactive: 34.5%

Compound,growth inhibition [1],growth inhibition [2],growth inhibition [3],growth inhibition [4],growth inhibition [5],growth inhibition [6]
CN1CC[O][Ge]2([O]CC1)[O]C(=O)C(c1ccccc1)(c1ccccc1)[O]2,inactive: -11.2%,inactive: 2.7%,inactive: 10%,inactive: 19.6%,inactive: -7.55%,inactive: -4.4%
CN1C(=O)N(C)P12(Cl)N(C)C(=O)N2C,inactive: 20.5%,inactive: -4.25%,inactive: 9.2%,inactive: 19.3%,inactive: 17.4%,inactive: 24.1%
C=CCC[P+](CC)(c1ccccc1)c1ccccc1,inactive: 51.2%,inactive: 20.6%,inactive: -2.65%,inactive: -29.6%,inactive: 15.6%,inactive: 6.3%
COc1cc(CNCCCl)cc(OC)c1OC,inactive: 9.7%,inactive: -16.8%,inactive: 6.5%,inactive: -5.9%,inactive: 3.1%,inactive: -11.9%
C[C@H]1OC[C@@H](CN(C)CCCl)O1,inactive: 34.3%,inactive: 31.1%,inactive: 41.5%,inactive: -22%,inactive: 30.6%,inactive: 40.1%
CCN(CC)C(=O)Oc1ccc(/C=N/O)nc1,inactive: -4.6%,inactive: -15.5%,inactive: -9.7%,inactive: 7.05%,inactive: -6.2%,inactive: -28.8%
N=P(c1ccccc1)(c1ccccc1)c1ccccc1,inactive: 4.35%,inactive: 2.45%,inactive: -5.3%,inactive: -7.55%,inactive: -0.85%,inactive: 12.4%
CC(C)[C@@H]1[C@H](C)[N+]1(C)C,inactive: 7.1%,inactive: -9.8%,inactive: 14.8%,inactive: -34.5%,inactive: 0%,inactive: 13.4%
CCNC(=O)O[C@@H]1CC[N+]2([O-])CC=C(COC(=O)C(O)(CC)c3ccc(Cl)cc3)C12 (stereo partly drawn),inactive: -4.85%,inactive: -26.4%,inactive: -25.5%,inactive: 3%,inactive: 3.4%,inactive: -2.6%
O=[N+]([O-])c1cnc(N(CCCl)CCCl)s1,inactive: 20.6%,inactive: 9.05%,inactive: 20.9%,inactive: 38%,inactive: 3.7%,inactive: 36.2%
Cc1ccc(C(C)(C)O)c(CN(C)C)c1C,inactive: 22.9%,inactive: 17.1%,inactive: 34.2%,inactive: 16.1%,inactive: -8.7%,inactive: 10.3%
Cc1ccc2cc(N(CCI)CCI)ccc2c1,inactive: 43%,inactive: 11.6%,inactive: 18.6%,inactive: 28.6%,inactive: -9%,inactive: 40.2%
O=C1C(F)=C(NCCCl)C(=O)C(F)=C1NCCCl,inactive: 0.3%,inactive: 10.8%,inactive: 19%,inactive: -7.45%,inactive: 24.9%,inactive: 14%
CCCCOP(O)OCCCC,inactive: 22.6%,inactive: 6.45%,inactive: 5.35%,inactive: 13.6%,inactive: -8.45%,inactive: 21.4%
ClC1=C(Cl)C2(Cl)C3C(SC4C3C3(Cl)C(Cl)=C(Cl)C4(Cl)C3(Cl)Cl)C1(Cl)C2(Cl)Cl (stereo not drawn),inactive: -0.8%,inactive: 9.9%,inactive: -14.8%,inactive: -17.4%,inactive: -14.2%,inactive: 2.85%
BrP(c1ccccc1)c1ccccc1,inactive: 6.2%,inactive: 6.6%,inactive: 10.2%,inactive: 14.2%,inactive: -9.4%,inactive: 11.1%
CCOP(=O)(N=C(Nc1ccccc1)Nc1ccccc1)OCC,inactive: 1.5%,inactive: -1.25%,inactive: -2.55%,inactive: 11.7%,inactive: -0.1%,inactive: 4.3%
O=P(NO)(OCc1ccccc1)N(CCCl)CCCl (stereo not drawn),inactive: -10.3%,inactive: 11.6%,inactive: 3.3%,inactive: -9.8%,inactive: -3.65%,inactive: -4.3%
CCOP(=O)(CCBr)OCC,inactive: 21.3%,inactive: -1.2%,inactive: 4.15%,inactive: -20.1%,inactive: 0.95%,inactive: 30.8%
